{"sequences": {"note": "Amino acid sequences for entries named in this document (tags omitted). Residues count along the entry.", "UniProt Q9UM73, 19-1620 L1196M": "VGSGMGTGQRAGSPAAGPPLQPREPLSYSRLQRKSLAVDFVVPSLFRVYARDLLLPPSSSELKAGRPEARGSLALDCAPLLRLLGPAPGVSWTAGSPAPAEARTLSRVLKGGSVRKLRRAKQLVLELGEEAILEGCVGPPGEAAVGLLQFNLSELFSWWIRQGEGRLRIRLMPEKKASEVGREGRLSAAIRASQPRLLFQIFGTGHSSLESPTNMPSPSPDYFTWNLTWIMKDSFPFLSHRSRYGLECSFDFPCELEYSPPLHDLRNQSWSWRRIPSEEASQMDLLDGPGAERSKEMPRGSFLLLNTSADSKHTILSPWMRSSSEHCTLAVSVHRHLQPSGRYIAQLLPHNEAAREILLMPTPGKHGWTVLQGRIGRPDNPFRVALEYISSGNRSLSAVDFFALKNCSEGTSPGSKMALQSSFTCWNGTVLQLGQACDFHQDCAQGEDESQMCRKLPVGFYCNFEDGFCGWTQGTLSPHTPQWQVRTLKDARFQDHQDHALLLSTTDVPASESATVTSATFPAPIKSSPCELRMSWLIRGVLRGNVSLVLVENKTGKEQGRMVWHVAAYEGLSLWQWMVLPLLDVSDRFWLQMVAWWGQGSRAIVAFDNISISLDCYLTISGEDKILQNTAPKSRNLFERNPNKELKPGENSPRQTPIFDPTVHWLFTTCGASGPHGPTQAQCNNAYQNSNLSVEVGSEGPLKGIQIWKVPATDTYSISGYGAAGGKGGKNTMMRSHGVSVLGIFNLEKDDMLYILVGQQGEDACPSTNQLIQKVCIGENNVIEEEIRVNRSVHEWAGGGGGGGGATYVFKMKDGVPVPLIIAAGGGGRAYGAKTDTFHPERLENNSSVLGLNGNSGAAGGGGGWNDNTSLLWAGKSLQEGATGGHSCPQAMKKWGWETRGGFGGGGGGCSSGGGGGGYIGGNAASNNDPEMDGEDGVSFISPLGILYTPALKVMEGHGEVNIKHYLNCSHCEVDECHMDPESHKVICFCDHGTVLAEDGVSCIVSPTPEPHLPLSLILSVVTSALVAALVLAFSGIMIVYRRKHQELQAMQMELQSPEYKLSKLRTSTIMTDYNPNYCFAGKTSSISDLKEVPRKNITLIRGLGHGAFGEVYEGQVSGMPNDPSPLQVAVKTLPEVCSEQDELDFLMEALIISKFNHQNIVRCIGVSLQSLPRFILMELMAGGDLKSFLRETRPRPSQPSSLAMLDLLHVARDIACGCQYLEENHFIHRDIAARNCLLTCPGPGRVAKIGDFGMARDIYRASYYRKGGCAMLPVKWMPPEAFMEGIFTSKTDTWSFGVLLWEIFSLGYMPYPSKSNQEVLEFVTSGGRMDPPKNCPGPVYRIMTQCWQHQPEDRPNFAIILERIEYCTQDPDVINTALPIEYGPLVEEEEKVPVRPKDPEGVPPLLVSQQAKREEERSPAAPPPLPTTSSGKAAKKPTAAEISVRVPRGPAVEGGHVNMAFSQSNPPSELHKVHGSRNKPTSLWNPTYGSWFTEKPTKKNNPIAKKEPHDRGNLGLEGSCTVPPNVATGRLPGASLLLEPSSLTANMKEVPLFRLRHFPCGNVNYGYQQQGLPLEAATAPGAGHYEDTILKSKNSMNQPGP"}, "source": "patent US9708279B2", "about": "“2-acylaminothiazoles for the treatment of cancer” (UNIVERSITA′ DEGLI STUDI DI MILANO-BICOCCA, priority 2013, dated 2017)", "key": {"[1]": {"target": "recombinant L1196M mutated ALK kinase (rALK) (Homo sapiens (Human), UniProt Q9UM73, L1196M)", "test": "ELISA-based in vitro kinase assay, L1196M ALK", "assay_type": "biochemical", "conditions": "0.3 mM ATP"}, "[2]": {"test_system": "BaF3 cells transformed with the mutated oncogenic fusion protein NPM/ALK carrying the substitution L1196M", "test": "Tritiated thymidine uptake cell proliferation assay, BaF3 NPM/ALK L1196M", "assay_type": "cell-based", "conditions": "for IC50: BaF3 NPM/ALK L1196M cells, 72 h, 3H-thymidine uptake; for Selectivity Index (1196M): parental BaF3 versus BaF3 NPM/ALK L1196M"}}}
{"smiles": "COc1ccc(C#Cc2cc(-c3csc(NC(=O)c4ccc(CN5CCN(C)CC5)cc4)n3)ccc2C)cc1", "note": "[Example 6, N-(4-(3-((4-methoxyphenyl)ethynyl)-4-methylphenyl)thiazol-2-yl)-4-((4-methylpiperazin-1-yl)methyl)benzamide]", "values": [{"measurement": "IC50", "setting": "[1]", "result": 6.3, "unit": "µM"}, {"measurement": "IC50", "setting": "[2]", "result": 2.3, "unit": "µM"}, {"measurement": "Selectivity Index (1196M)", "setting": "[2]", "result": 3}]}
{"smiles": "Cc1ccc(-c2csc(NC(=O)c3ccc(CN4CCN(C)CC4)cc3)n2)cc1C#Cc1ccc(F)cc1", "note": "[Example 9, N-(4-(3-((4-fluorophenyl)ethynyl)-4-methylphenyl)thiazol-2-yl)-4-((4-methylpiperazin-1-yl)methyl)benzamide]", "values": [{"measurement": "IC50", "setting": "[1]", "result": 8, "unit": "µM"}, {"measurement": "IC50", "setting": "[2]", "result": 0.9, "unit": "µM"}, {"measurement": "Selectivity Index (1196M)", "setting": "[2]", "result": 4}]}
{"smiles": "CN1CCN(C(=O)c2ccc(-c3ccc(C(=O)Nc4nc(-c5cccc(C#Cc6cc(C(F)(F)F)cc(C(F)(F)F)c6)c5)cs4)o3)cc2)CC1", "note": "[Example 34, N-(4-(3-((3,5-bis(trifluoromethyl)phenyl)ethynyl)phenyl)thiazol-2-yl)-5-(4-(4-methylpiperazine-1-carbonyl)phenyl)furan-2-carboxamide]", "values": [{"measurement": "IC50", "setting": "[1]", "result": "> 100", "unit": "µM"}, {"measurement": "IC50", "setting": "[2]", "result": 1.7, "unit": "µM"}, {"measurement": "Selectivity Index (1196M)", "setting": "[2]", "result": 2}]}
{"smiles": "O=C(Nc1nc(-c2cccc(C#Cc3cc(C(F)(F)F)cc(C(F)(F)F)c3)c2)cs1)c1ccc(CN2CCOCC2)cc1", "note": "[Example 39, N-(4-(3-((3,5-bis(trifluoromethyl)phenyl)ethynyl)phenyl)thiazol-2-yl)-4-(morpholinomethyl)benzamide]", "values": [{"measurement": "IC50", "setting": "[1]", "result": 27, "unit": "µM"}, {"measurement": "IC50", "setting": "[2]", "result": 1.3, "unit": "µM"}, {"measurement": "Selectivity Index (1196M)", "setting": "[2]", "result": 26}]}
{"smiles": "CN1CCN(C(=O)c2ccc(-c3ccc(C(=O)Nc4nc(-c5cccc(C#Cc6ccccc6OC(F)(F)F)c5)cs4)o3)cc2)CC1", "note": "[Example 43, 5-(4-(4-methylpiperazine-1-carbonyl)phenyl)-N-(4-(3-((2-(trifluoromethoxy)phenyl)ethynyl)phenyl)thiazol-2-yl)furan-2-carboxamide]", "values": [{"measurement": "IC50", "setting": "[1]", "result": 1.3, "unit": "µM"}, {"measurement": "IC50", "setting": "[2]", "result": 0.86, "unit": "µM"}, {"measurement": "Selectivity Index (1196M)", "setting": "[2]", "result": 5}]}
{"smiles": "CC(C)[Si](C#Cc1cccc(-c2csc(NC(=O)c3ccc(CNCCN(C)C)cc3)n2)c1)(C(C)C)C(C)C", "note": "[Example 44, 4-(((2-(dimethylamino)ethyl)amino)methyl)-N-(4-(3-((triisopropylsilyl)ethynyl)phenyl)thiazol-2-yl)benzamide]", "values": [{"measurement": "IC50", "setting": "[1]", "result": 65, "unit": "µM"}]}
